Experimental data taken from paper PMC10424673, “Computational Design of Potent and Selective D-Peptide Agonists of the Glucagon-like Peptide-2 Receptor” (Journal of Medicinal Chemistry, 2023).

Sequences of proteins named here, by UniProt entry; tags and fusion partners are left off. A change or cut given only in a name is not applied to a line headed by its entry.
UniProt O95838: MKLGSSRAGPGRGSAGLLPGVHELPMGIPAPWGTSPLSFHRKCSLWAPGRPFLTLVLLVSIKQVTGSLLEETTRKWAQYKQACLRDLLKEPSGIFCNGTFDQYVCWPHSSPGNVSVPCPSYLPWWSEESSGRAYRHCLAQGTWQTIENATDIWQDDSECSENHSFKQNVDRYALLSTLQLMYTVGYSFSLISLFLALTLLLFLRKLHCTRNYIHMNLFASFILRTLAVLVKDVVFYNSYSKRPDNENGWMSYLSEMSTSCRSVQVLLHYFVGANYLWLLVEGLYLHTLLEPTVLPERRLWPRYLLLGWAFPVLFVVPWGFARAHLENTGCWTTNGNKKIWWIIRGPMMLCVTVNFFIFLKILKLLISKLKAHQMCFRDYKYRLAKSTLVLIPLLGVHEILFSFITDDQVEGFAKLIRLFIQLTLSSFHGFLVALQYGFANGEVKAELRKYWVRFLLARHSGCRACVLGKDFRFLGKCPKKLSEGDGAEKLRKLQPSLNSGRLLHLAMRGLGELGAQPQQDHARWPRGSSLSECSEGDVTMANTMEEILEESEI

How the values were obtained:
[1] = biological target: glucagon-like peptide-2 receptor (hGLP-2R), stably expressed on HEK293 cells (human) (UniProt O95838)
[2] = biological target: glucagon-like peptide-2 receptor (hGLP-2R), stably expressed on HEK293 cells (human) (UniProt O95838); remark: listed apart in the source

| Substance | HTRF cAMP assay (decrease of the FRET signal) in GLP-2R expressing HEK293 cells [1] | HTRF cAMP assay in GLP-2R expressing HEK293 cells: efficacy compared to L-GLP-2 [2] |
| --- | --- | --- |
| D-GLP-2 E33A hydrazide (designed binder) | 226 nM | 69.4% |
| D-GLP-2 (D-retro-inverted GLP-2 analogue) (designed binder) | 1420 nM | – |
